Test [1] concerns N87 xenograft. As to the kind of experiment: HER2 IHC3+ N87 xenograft model, Campt1 ADCs (Example 20). The settings on record: single dose: 10 mg/kg (3 mg/kg for BsAb2-Tubulysin 1A-LP). The class given is in vivo, SCID mice.
For test [2], the system named is JIMT1 xenograft. The test can be described thus: HER2 IHC2+ JIMT1 xenograft model, three ADCs (Example 16). The class given is in vivo, SCID mice. To be noted: for JIMT1 Xenograft Tumor Size Average: 3 × 10 mg on days 13, 20, 27.
Test [3] has as its system MDAMB469. As to the kind of experiment: Surface binding, high content imaging. The test is classed as cell-based. To be noted: 10 ug/mL antibody.
The subject of test [4] is MDAMB361. The test can be described thus: Surface binding, high content imaging. The settings on record: 10 ug/mL antibody. The class given is cell-based.
In test [5] the test system is SKBR3. As to the kind of experiment: Surface binding, high content imaging. The settings on record: 10 ug/mL antibody. The test is classed as cell-based.
Test [6] relates to MDAMB453. As to the kind of experiment: Surface binding, high content imaging. The test is classed as cell-based. To be noted: 10 ug/mL antibody.
Test [7] has as its system MCF7. The test can be described thus: Surface binding, high content imaging. The class given is cell-based. The settings on record: 10 ug/mL antibody.
Test [8] deals with N87. As to the kind of experiment: Surface binding, high content imaging. The class given is cell-based. The settings on record: 10 ug/mL antibody.
Test [9] concerns CaLu3. As to the kind of experiment: Surface binding, high content imaging. The class given is cell-based. To be noted: 10 ug/mL antibody.
Test [10] relates to EBC1. As to the kind of experiment: Surface binding, high content imaging. The class given is cell-based. The settings on record: 10 ug/mL antibody.
The test system of test [11] is JIMT1. As to the kind of experiment: Surface binding, high content imaging. The class given is cell-based. To be noted: 10 ug/mL antibody.
For test [12], the system named is SKOV3. As to the kind of experiment: Surface binding, high content imaging. The test is classed as cell-based. The settings on record: 10 ug/mL antibody.
The subject of test [13] is Primary Myocardial cells. As to the kind of experiment: Surface binding, high content imaging. The class given is cell-based. To be noted: Myocardium; 10 ug/mL antibody.
Test [14] relates to Primary Prostate Epithelial cells. The test can be described thus: Surface binding, high content imaging. The test is classed as cell-based. To be noted: 10 ug/mL antibody.
Test [15] concerns Primary Mammary Epithelial cells. The test can be described thus: Surface binding, high content imaging. To be noted: Breast; 10 ug/mL antibody. The class given is cell-based.
In test [16] the test system is ZR751. The test can be described thus: Surface binding, high content imaging. The test is classed as cell-based. The settings on record: 10 ug/mL antibody.
Test [17] concerns B1483. As to the kind of experiment: Surface binding, high content imaging. The test is classed as cell-based. To be noted: 10 ug/mL antibody.
For test [18], the system named is Primary Lung Epithelial cells. As to the kind of experiment: Surface binding, high content imaging. The class given is cell-based. The settings on record: 10 ug/mL antibody.
Test [19] concerns MDAMB231. The test can be described thus: Surface binding, high content imaging. The test is classed as cell-based. To be noted: 10 ug/mL antibody.
Test [20] deals with epG2. The test can be described thus: Surface binding, high content imaging. The test is classed as cell-based. To be noted: 10 ug/mL antibody.
The subject of test [21] is BT474. The test can be described thus: Surface binding, high content imaging. The test is classed as cell-based. To be noted: 10 ug/mL antibody.
Test [22] deals with ZR751 cells. As to the kind of experiment: Cell surface binding, flow cytometry. The class given is cell-based. (Flow cytometry measures light scatter and fluorescence of single cells or particles in a stream.)
Test [23] relates to JIMT1 cells. As to the kind of experiment: Cell surface binding, flow cytometry. The test is classed as cell-based.
Test [24] deals with MDAMB361 cells. The test can be described thus: Cell surface binding, flow cytometry. The test is classed as cell-based.

For the substance “CompAb1-GGFG-Dxd: comparator ADC of CompAb1 with GGFG-Dxd; probably the same as DS8201A [reference compound]”, the “anti-tumor response” value in [1] was “comparable”.
For the substance “CompAb1-L-Camptothecin: DS8201A, an anti-HER2 ADC comprising a DxD payload; parental antibody Herceptin”, in test [2] (3 mg/kg Tubulysin 1A-LP ADCs (BsAb1: single dose), weekly 10 mg/kg Maytansinoid A and Camptothecin ADCs), the “anti-tumor effect” value was “only a slow-down in tumor progression”. The “JIMT1 Xenograft Tumor Size Average” value in [2] (day 7) is on record as 84 mm^3; in [2] (day 13), 182 mm^3; in test [2] (day 15), 204 mm^3; in test [2] (day 17), 225 mm^3; in [2] (day 20), 225 mm^3; in [2] (day 23), 224 mm^3. Besides, the “JIMT1 Xenograft Tumor Size Average” value amounted to 184 mm^3 in [2] (day 27); 227 mm^3 in test [2] (day 29); 219 mm^3 in [2] (day 31); 249 mm^3 in test [2] (day 34); 281 mm^3 in test [2] (day 36); 315 mm^3 in test [2] (day 38). For the same substance, the “JIMT1 Xenograft Tumor Size Average” value in test [2] (day 41) is given as 345 mm^3; in test [2] (day 44), 374 mm^3; in test [2] (day 48), 446 mm^3; in [2] (day 50), 500 mm^3; in test [2] (day 53) it was 557 mm^3; in [2] (day 57) it was 727 mm^3. In addition, the “JIMT1 Xenograft Tumor Size Average” value in test [2] (day 65) was 963 mm^3; in test [2] (day 69), 1161 mm^3. In test [2] (three weekly doses of 10 mg/kg, by day 44), this substance yielded an average xenograft size of 374 mm^3.
For “CompAb1: parental anti-HER2 antibody, Herceptin [reference compound]”, the MFI in [3] was 0.1304 A.U; in test [4] it was 1.522 A.U; in test [5] it was 1.938 A.U; in test [6] it was 0.8035 A.U; in test [7], 0.2831 A.U; in test [8], 1.8087 A.U. In addition, the MFI is listed as 1.53 A.U in [9]; 0.2684 A.U in test [10]; 0.6212 A.U in test [11]; 1.603 A.U in [12]; 0.09543 A.U in [13]; 0.2042 A.U in test [14]. In addition, the MFI in test [15] came to 0.2415 A.U; in [16], 0.6014 A.U; in test [17], 0.4949 A.U; in [18], 0.3032 A.U; in test [19], 0.1798 A.U; in test [20], 0.4002 A.U. The MFI in test [21] came to 1.736 A.U; in test [22] ([Ab] 0.04 ug/ml), 435 A.U; in test [22] ([Ab] 0.08 ug/ml), 648 A.U; in test [22] ([Ab] 0.31 ug/ml), 1850 A.U; in [22] ([Ab] 0.63 ug/ml) it was 3283 A.U; in [22] ([Ab] 1.25 ug/ml), 5369 A.U. The MFI in [22] ([Ab] 2.5 ug/ml) is 7901 A.U; in [22] ([Ab] 5 ug/ml), 9983 A.U; in test [22] ([Ab] 10 ug/ml) it was 11078 A.U; in test [22] ([Ab] 20 ug/ml), 11793 A.U; in test [22] ([Ab] 40 ug/ml), 11749 A.U; in test [23] ([Ab] 0.04 ug/ml), 276 A.U. Besides, the MFI in test [23] ([Ab] 0.08 ug/ml) was 481 A.U; in test [23] ([Ab] 0.31 ug/ml), 1377 A.U; in test [23] ([Ab] 0.63 ug/ml), 2396 A.U; in [23] ([Ab] 1.25 ug/ml) it was 3778 A.U; in [23] ([Ab] 2.5 ug/ml), 5713 A.U; in test [23] ([Ab] 5 ug/ml) it was 7995 A.U. Also, the MFI was found to be 10320 A.U in test [23] ([Ab] 10 ug/ml); 11378 A.U in test [23] ([Ab] 20 ug/ml); 11349 A.U in test [23] ([Ab] 40 ug/ml); 304 A.U in test [24] ([Ab] 0.04 ug/ml); 465 A.U in test [24] ([Ab] 0.08 ug/ml); 1259 A.U in test [24] ([Ab] 0.31 ug/ml). Besides, the MFI is 2097 A.U in [24] ([Ab] 0.63 ug/ml); 3780 A.U in test [24] ([Ab] 1.25 ug/ml); 6183 A.U in [24] ([Ab] 2.5 ug/ml); 8988 A.U in test [24] ([Ab] 5 ug/ml); 12003 A.U in [24] ([Ab] 10 ug/ml); 13863 A.U in [24] ([Ab] 20 ug/ml). In test [24] ([Ab] 40 ug/ml), this substance had an MFI of 14675 A.U.

Values taken from patent US12583939B2, “Bispecific antigen binding molecules that bind HER2, and methods of use thereof” (Regeneron Pharmaceuticals, Inc., priority 2020, dated 2026).
